Each structure is given as a SMILES string.

The species named for assay [1] is Homo sapiens. The assay can be described thus: Selectivity ratio of Ki for mu opioid receptor to Ki for kappa opioid receptor.
The species named for assay [2] is Homo sapiens. Put plainly: Selectivity ratio of Ki for delta opioid receptor to Ki for kappa opioid receptor.

Turning to `N=C(N)Nc1ccc2[nH]c3c(c2c1)C[C@@]1(O)[C@H]2Cc4ccc(O)c5c4[C@@]1(CCN2CC1CC1)[C@H]3O5`, the Ratio Ki in assay [1] was 120; in assay [2] it was 250.

The values above are taken from ChEMBL document CHEMBL1153911 (Bioorg Med Chem Lett, 2009).
